Molecules are shown by their SMILES. “And” between values parts separate entries of the source, which are not always exact repeats. Equal values may be shown once. The list shows a part of the results, in another mix than the full data. Inconclusive results are not listed. The source made the active and inactive calls. Calls follow the shape of the dose curve; as a rule, active = well fitted cell-killing curve with a large enough effect in the repeat runs; inconclusive = weak or mixed curves, or effect the other way; inactive = flat fitted curve, though single readings scatter.
% is scaled to controls: 0 for no effect and ±100 for the full control effect.

One experiment in a line: qHTS assay to identify small molecule antagonists of the retinoid acid receptor (RAR) signaling pathway - cell viability counter screen (AID 1159551). Also: nearly all actives have a fitted effect of over 35% in size. The conditions noted are these: C3RL4 cells viability, ATP luminescence (CellTiter-Glo), 6 h; at 42.5 µM (top of the series). The text has this: U.S. Tox21 Program National Center for Advancing Translational Sciences [NCATS] NIH Chemical Genomics Center [NCGC] U.S. Environmental Protection Agency [EPA] National Institutes of Environmental Health Sciences [NIEHS] National Toxicology Program [NTP] U.S. Food and Drug Administration [FDA] Tox21 Assay Overview: All-trans Retinoic acid (atRA) is the potent natural metabolite of retinol and plays an important role in normal embryonic development and maintenance of cellular phenotype in adult animals. atRA is the activating ligand for the retinoic acid receptors (RARs) which form heterodimers with retinoid X receptors (RXRs) on the retinoic acid response element (RARE). Through activation of the RAR/RXRs nuclear receptors, atRA regulates the transcription of a large number of protein-coding genes and regulatory RNAs. Intracellular levels of atRA are controlled by the retinol signaling pathway (RSP) that regulates the biosynthesis and catabolism of atRA to maintain physiological levels. Chemicals that interfere with the RSP can cause abnormal intracellular levels of atRA and therefore are potential developmental toxicants. To assess compounds for the potential adverse effect on embryonic development through interfering with retinol signaling, a cell-based RARE luciferase reporter gene assay was used. C3RL4 cell line (OARSA/CFSAN/FDA, Laurel, MD) was used to screen Tox21 10K compound library for identifying inhibitors of the RSP. Also cytotoxicity was assessed by determining the viability of cells based on the quantitation of ATP.
Tox21 Assay Protocol Summary: C3RL4 cells were seeded at 1,000/well in 4 uL of assay medium into white solid 1,536-well tissue culture plates (Greiner Bio-One North America Inc. Monroe, NC) using a Multidrop Combi (Thermo Scientific, Waltham, MA) dispenser. After incubation at 37 C and 5% CO2 for an overnight, 23 nL of compounds dissolved in DMSO, positive control or DMSO only were transferred by a Pintool station (Kalypsys, San Diego, CA). One ul of 1 uM (final concentration) of Retinol was added right after the compound addition by using a Flying Reagent Dispenser (FRD) (Aurora Discovery, San Diego, CA). After 6 hr incubation at 37 C and 5% CO2, 5 uL of CellTiter-Glo reagent (Promega Corporation, Madison, WI) was added to each assay plate using an FRD. Luminescence was quantified on a ViewLux plate reader (PerkinElmer, Waltham, MA) after 30 min incubation at room temperature.
On to `NC(=O)Nc1ccc([As](=O)(O)O)cc1`, for which the activity change, negative = cytotoxicity is inactive: 1.62%.

Still in this experiment, the particulars now being: C3RL4 cells viability, ATP luminescence (CellTiter-Glo), 6 h; at 92.4 µM (top of the series).
With `NC(=O)Nc1ccc([As](=O)(O)O)cc1`, the activity change, negative = cytotoxicity is inactive: -0.117%.

Staying with this experiment, now noted: C3RL4 cells viability, ATP luminescence (CellTiter-Glo), 6 h; at 92.4 µM (top of the series) unless noted.
For the compound `CN(C(=O)Cc1cccc2occc12)[C@H]1CC[C@@]2(CCCO2)C[C@@H]1N1CCCC1`, the activity change, negative = cytotoxicity was inactive: -3.71%.

Turning to `O=[N+]([O-])c1ccc(S(=O)(=O)O)c([N+](=O)[O-])c1`, the activity change, negative = cytotoxicity is inactive: 5.65%.

With `COP(=S)(Cl)OC`, the activity change, negative = cytotoxicity was inactive: -4.55%.

Regarding `CCNC(C)Cc1ccc2c(c1)OCO2` (stereo unspecified), the activity change, negative = cytotoxicity is inactive: -1.06%.

Take `CC(C)OP(=S)(OC(C)C)SCCNS(=O)(=O)c1ccccc1`: the activity change, negative = cytotoxicity was inactive: 1.15%.

In the case of `CCOC(=O)Cl`, the activity change, negative = cytotoxicity was inactive: 1.3%.

In the case of `CCOP(=S)(CC)Sc1ccccc1` (stereo unspecified), the activity change, negative = cytotoxicity is inactive: -7.86%.

As to `CCCCO[P+](=O)OCCCC`, the activity change, negative = cytotoxicity was inactive: -1.36% and inactive: 0.0887%.

Turning to `O=[P+](Oc1ccccc1)Oc1ccccc1`, the activity change, negative = cytotoxicity is inactive: 0.638%.

Turning to `O=C(Cl)Oc1ccccc1`, the activity change, negative = cytotoxicity is inactive: 0.0513%.

As to `O=[p+]1oc2ccccc2c2ccccc21` (stereo unspecified), the activity change, negative = cytotoxicity was inactive: 4.78%.

With `CN(C(=O)Cc1ccccc1)[C@H]1CC[C@@]2(CCCO2)C[C@@H]1N1CCCC1`, the activity change, negative = cytotoxicity was inactive: -2.53% [at 42.5 µM].

Turning to `CN(N=O)C(=N)N[N+](=O)[O-]`, the activity change, negative = cytotoxicity was inactive: 3.97%.

As for `CC(C)CCCCCCCOP(OCCCCCCCC(C)C)Oc1ccccc1`, the activity change, negative = cytotoxicity is inactive: -0.281%.

With `Cc1cc([N+](=O)[O-])c(O)c([N+](=O)[O-])c1`, the activity change, negative = cytotoxicity was inactive: 1.93%.

In the case of `ClP(Cl)c1ccccc1`, the activity change, negative = cytotoxicity was inactive: -2.43%.

With `CCCCOP(OCCCC)OCCCC`, the activity change, negative = cytotoxicity is inactive: -0.697%.

For the compound `O=P(Cl)(Oc1ccccc1)Oc1ccccc1`, the activity change, negative = cytotoxicity was inactive: -0.67%.

Consider `CCC(C)(OOC(C)(C)C)OOC(C)(C)C`, for which the activity change, negative = cytotoxicity was inactive: -0.0644% [at 19 µM].

Turning to `O=P(Cl)(Cl)c1ccccc1`, the activity change, negative = cytotoxicity was inactive: 1.31%.

For the compound `COC(=O)Cl`, the activity change, negative = cytotoxicity was inactive: -0.643%.

Take `CCCCC(CC)CO[P+](=O)OCC(CC)CCCC` (stereo unspecified): the activity change, negative = cytotoxicity is inactive: 1.98%.

As to `O=C(Cl)OCCOC(=O)Cl`, the activity change, negative = cytotoxicity is inactive: -2.34%.

Turning to `CN(C(=O)Cc1ccc(Cl)c(Cl)c1)[C@H]1CC[C@@]2(CCCO2)C[C@@H]1N1CCCC1`, the activity change, negative = cytotoxicity is inactive: 0.125% [at 42.5 µM].
